Source: paper PMC8157854, “Radiosynthesis and Evaluation of Talazoparib and Its Derivatives as PARP-1-Targeting Agents” (Biomedicines, 2021)

Sequences of proteins named here, by UniProt entry; tags and fusion partners are left off.
UniProt P09874, whole entry: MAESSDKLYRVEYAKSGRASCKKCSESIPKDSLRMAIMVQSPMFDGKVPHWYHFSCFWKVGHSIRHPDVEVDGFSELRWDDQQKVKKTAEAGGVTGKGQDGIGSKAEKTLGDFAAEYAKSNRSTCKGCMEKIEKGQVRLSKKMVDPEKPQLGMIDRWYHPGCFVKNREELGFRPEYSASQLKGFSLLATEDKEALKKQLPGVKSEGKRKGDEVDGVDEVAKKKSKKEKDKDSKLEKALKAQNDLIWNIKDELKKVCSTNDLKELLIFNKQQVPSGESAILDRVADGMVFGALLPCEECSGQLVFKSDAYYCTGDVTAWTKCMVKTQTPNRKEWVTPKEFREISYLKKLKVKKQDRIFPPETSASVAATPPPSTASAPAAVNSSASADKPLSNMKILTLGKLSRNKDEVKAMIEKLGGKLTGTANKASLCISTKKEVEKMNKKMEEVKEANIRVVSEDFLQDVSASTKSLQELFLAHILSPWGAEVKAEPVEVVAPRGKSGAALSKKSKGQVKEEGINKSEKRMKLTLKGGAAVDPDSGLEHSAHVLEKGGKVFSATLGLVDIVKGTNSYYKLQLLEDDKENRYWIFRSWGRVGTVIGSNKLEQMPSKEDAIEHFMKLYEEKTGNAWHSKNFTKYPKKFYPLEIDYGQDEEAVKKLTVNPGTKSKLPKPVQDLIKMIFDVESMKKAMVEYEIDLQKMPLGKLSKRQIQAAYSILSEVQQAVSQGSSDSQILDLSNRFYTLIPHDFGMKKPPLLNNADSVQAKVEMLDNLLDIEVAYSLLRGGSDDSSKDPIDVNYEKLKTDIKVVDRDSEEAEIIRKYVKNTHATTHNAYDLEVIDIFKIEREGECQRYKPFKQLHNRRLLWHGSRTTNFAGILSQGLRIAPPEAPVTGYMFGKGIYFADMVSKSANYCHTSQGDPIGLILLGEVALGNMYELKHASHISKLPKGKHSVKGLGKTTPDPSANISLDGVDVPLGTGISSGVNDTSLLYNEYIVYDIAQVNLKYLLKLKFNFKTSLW

Target: PARP-1 (Homo sapiens, UniProt P09874)
Assay: Radioligand cell uptake saturation analysis of [3H]WC-DZ in U251MG cells
Format: binding
Conditions: Mean ± SEM, n = 3

Hill coefficient nH (Hill plot): 1.07 ± 0.18
Bmax (binding density) (Scatchard analysis): 2382 ± 318 fmol/mg protein
SMILES: [3H]c1ccc(-c2nc3cccc4c3n2CCNC4=O)cc1
